Measured values: patent US10730883B2 (AbbVie Inc., priority 2015, dated 2020)

System: healthy subjects
Assay: Study 2-Part 1: safety and tolerability, multiple doses, healthy subjects
Assay type: in vivo, human
Settings: 14 days

CC[C@@H]1CN(C(=O)NCC(F)(F)F)C[C@@H]1c1cnc2cnc3[nH]ccc3n12 [Compound 1, (3S,4R)-3-ethyl-4-(3H-imidazo[1,2-a]pyrrolo[2,3-e]pyrazin-8-yl)-N-(2,2,2-trifluoroethyl)pyrrolidine-1-carboxamide]
overall incidence of TEAEs (3 mg BID dose group): 25.0% | overall incidence of TEAEs (6 mg BID dose group): 25.0% | overall incidence of TEAEs (12 mg BID dose group): 37.5%
